Test results from patent US12064407B2 (priority 2017, dated 2024).

B1: LIGHT: lymphotoxin-like inducible member of the TNF superfamily protein, pro-inflammatory cytokine (protein, UniProt O43557 83-240, looked up)
Tumor necrosis factor ligand …: LIQERRSHEVNPAAHLTGANSSLTGSGGPLLWETQLGLAFLRGLSYHDGALVVTKAGYYYIYSKVQLGGVGCPLGLASTITHGLYKRTPRYPEELELLVSQQSPCGRATSSSRVWWDSSFLGGVVHLEAGEKVVVRVLDERLVRLRDGTRSYFGAFMV

Test system: ERVK CTXLP
Format: cell-based, human

Molecule | CTXLP expression in SVGA cells | CTXLP protein levels in the nucleus of SVGA cells
TNFα | upregulated | strongly elevated
B1 | upregulated | –
